According to publication PMC10892409, “Exploring Ocimum basilicum’s Secondary Metabolites: Inhibition and Molecular Docking against Rhynchophorus ferrugineus for Optimal Action” (Plants, 2024):

Test system: R. ferrugineus adults
Assay: Antifeedant/insecticidal test on adults with treated sugarcane stem (probit LC50)
Details: after 1 day of treatment, 95% confidence limits in brackets

For Chicoric acid, the LC50 was 1097 (1016–1175) µg/mL.
